According to IntAct's records for PubMed 16901789:

B1: E3 ubiquitin-protein ligase RNF5 (Homo sapiens), Q99942 (parent)
chain: MAAAEEEDGGPEGPNRERGGAGATFECNICLETAREAVVSVCGHLYCWPCLHQWLETRPERQECPVCKAGISREKVVPLYGRGSQKPQDPRLKTPPRPQGQRPAPESRGGFQPFGDTGGFHFSFGVGAFPFGFFTTVFNAHEPFRRGTGVDLGQGHPASSWQDSLFLFLAIFFFFWLLSI

Variants of: B1
Details: with cftr_human CFTR

Row | Variant | effect of a mutation on the interaction
1 | MAAAEEEDGGPEGPNRERGGAGATFECNICLETAREAVVSVSGHLYCWPCLHQWLETRPERQECPVCKAGISREKVVPLYGRGSQKPQDPRLKTPPRPQGQRPAPESRGGFQPFGDTGGFHFSFGVGAFPFGFFTTVFNAHEPFRRGTGVDLGQGHPASSWQDSLFLFLAIFFFFWLLSI [C42S] | increasing interaction
